# Measured affinities in a library of Ab-14 heavy chain variants

Source: Li et al. 2023 (doi:10.1038/s41467-023-39022-2), MIT Lincoln Laboratory and A-Alpha Bio; data file from the FLAb repository.

Binding partner: SARS-CoV-2 spike HR2 peptide, sequence PDVDLGDISGINAS.

Each scFv is VH, a (GGGGS)3 linker, VL, as in the parent Ab-14, and differs from it in the CDRs of the heavy chain only.
VH: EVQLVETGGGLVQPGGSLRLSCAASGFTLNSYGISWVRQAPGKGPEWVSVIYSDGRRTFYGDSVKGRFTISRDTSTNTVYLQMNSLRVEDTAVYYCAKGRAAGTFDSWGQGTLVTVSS
VL: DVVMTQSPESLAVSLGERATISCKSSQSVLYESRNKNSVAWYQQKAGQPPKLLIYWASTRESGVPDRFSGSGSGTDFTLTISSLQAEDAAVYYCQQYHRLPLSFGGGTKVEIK

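This is the validation round: designs drawn from the data on random variants, tested in the same kind of assay. Group labels follow the data file (Ctrl: baseline library sampled from a position-specific scoring matrix, with some repeated check sequences; Rand: our label for a block that the file lists under HC and that is probably the random mutants of the ten best first-round binders; En: ensemble of fine-tuned language models; GP: Gaussian process model; GPLM: also part of the Gaussian process libraries; HC: hill climbing; Gen: genetic algorithm; Gibbs: Gibbs sampling; a sequence that several methods proposed may carry one label only). AlphaSeq pools MATa yeast showing the antibodies with MATalpha yeast showing the peptide. After mating in shaken culture at 30 °C for 16 h, diploids were selected and their barcode pairs sequenced. The ratio of observed to expected reads was calibrated, replicate by replicate, on BCL2-family standards whose Kd was known from biolayer interferometry. Mating was done six times.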

Variants are written as CDR1, CDR2 and CDR3 of the heavy chain (limits as in the source). Parent: GFTLNSYGIS, VIYSDGRRTFYGDSVK, GRAAGTFDS. Scale: log10 of Kd in nM, estimated from mating counts; low values are strong binders. Replicates are averaged; those with no signal do not enter the mean. Where no diploid with the target was found in any replicate, the entry reads "nd": below detection, most likely a poor binder, though not proof of it.

The variant GEHINSYGIS / VIYSDGRRTFYGNSVK / GRAAGTFDS [Ctrl] showed 2.05 (1 of 6 replicates).
The variant GFHLNSYGIS / VIYSDGRRTFYADSVK / GQTAGTFDS [GPLM_Gen] showed nd (0 of 6 replicates).
The variant GFSLNSYGIS / VIYSDGRRTFYSDSVK / GGQAGTFDS [Ctrl] showed -0.20 (1 of 6 replicates).
The variant GKDLNEFGIS / VIYADGKRSQYAQDVK / GVLQGQGTV [En_Gibbs] showed nd (0 of 6 replicates).
The variant GFTLNEYGIS / VIYSDGRRTFYADSVK / GRAAGTFMS [GP_HC] showed nd (0 of 6 replicates).
The variant GENLNSYGIS / VIYSDGRRTFYGDSVK / GRAAGTFDN [Ctrl] showed 3.12 (1 of 6 replicates).
The variant GFDLDEYGIS / VIYADGRRTYYADSVK / GTNAGTFDA [En_HC] showed 1.29 (5 of 6 replicates).
The variant GFSLNSYGIS / VIYSDGRRTFYSDSVK / GRVAGTFDS [GPLM_Gen] showed 0.07 (6 of 6 replicates).
The variant GQDLNEYGIS / VIYADGLRTAYSENVK / GNISQFDDG [En_Gibbs] showed nd (0 of 6 replicates).
The variant GFTLDSYGIS / VIYSDGRRTFYIDSVK / GRAAGTFDV [GP_HC] showed 0.58 (3 of 6 replicates).
The variant GKGLDEYGVS / VIYADGVRQSYADDVK / GGIAGTFLY [En_Gibbs] showed 1.12 (6 of 6 replicates).
The variant GFQLNSYGIS / VIYSDGRRTFYGDSVK / GRLAGAFDK [Ctrl] showed nd (0 of 6 replicates).
The variant GFNLDEYGIS / VIYADGMRTAYADSVK / GNNAGTFDV [En_Gen] showed -0.24 (6 of 6 replicates).
The variant GFDLNEYGIS / VIYADGMRTFYSDSVK / GNVAGTFDQ [En_Gen] showed -0.82 (6 of 6 replicates).
The variant GFTLNSYGIS / VIYSDGRRTFMGDSVK / NRAAGTFDP [Ctrl] showed nd (0 of 6 replicates).
The variant GFELNSYGIS / VIYSDGRRTFYSDSVK / GRTAGTFDA [GP_Gibbs] showed -0.33 (6 of 6 replicates).
The variant GFDLDEYGIS / VIYADGKRTAYANSVK / GEVAGTFDL [En_Gen] showed -0.51 (6 of 6 replicates).
The variant GFDLDEYGIS / VIYADGMRTAYADSVK / GQTAGTFDV [En_Gen] showed -0.94 (6 of 6 replicates).
The variant GFDLNEYGIS / VIYADGKRTAYSDSVK / GEAGGTFDS [En_HC] showed -0.17 (6 of 6 replicates).
The variant GFTLNSYGIS / VIYSDGMRTFYGDSVV / GQAAGTFDS [Ctrl] showed nd (0 of 6 replicates).

Continued, with the values leading:

Result 0.28 (6 of 6 replicates), variant GFDLNSYGIS / VIYSDGRRTFYGDSVK / GRAAGHFTS [GPLM_HC].
Result 0.74 (6 of 6 replicates), variant GFTLNEYGIS / VIYSDGRRTFYTDSVK / GRTAGTFDM [GP_HC].
Result nd (0 of 6 replicates), variant GFTPNSYGIS / VIYSDGRRKFYGDSVK / GRAAGTFPS [Ctrl].
Result -0.22 (6 of 6 replicates), variant GFDLNEYGIS / VIYADGRRTFYIDSVK / GEIAGTFVS [En_HC].
Result nd (0 of 6 replicates), variant GFALDEYGIS / VIYADGSRTVYAGDVK / GMLGVNFTY [En_Gibbs].
Result -0.29 (6 of 6 replicates), variant GFDLNEYGIS / VIYADGRRTAYADSVK / GNVAGTFDS [En_HC].
Result nd (0 of 6 replicates), variant TFNLNEYGIS / VIYSDGCRTFYGDSVK / GRAAGTFDT [Ctrl].
Result nd (0 of 6 replicates), variant GFHLNSYGIT / VIYSDGRRTFYGDSVK / GRAAGTFDS [Ctrl].
Result -0.36 (4 of 6 replicates), variant GFDLNEYGIS / VIYADGVRTAYSDSVK / GETAGTFDL [En_Gen].
Result 1.50 (6 of 6 replicates), variant KFSLNSYGIS / VIYSDGRRTFYHDSVK / GRTAGTFDS [GP_Gibbs].
Result nd (0 of 6 replicates), variant GFDLNEYGIS / VIYADGSRTAYTDSVK / GQNAGTFDV [En_Gen].
Result 0.10 (5 of 6 replicates), variant GFELNSYGIS / VIYSDGRRTFYADSVK / GKLAGTFDS [GPLM_Gibbs].
Result -0.47 (6 of 6 replicates), variant GFDLNEYGIS / VIYADGSRTFYSDSVK / GNAAGTFDV [En_HC].
Result -0.13 (6 of 6 replicates), variant GFDLNEYGIS / VIYADGMRTSYIDSVK / GNAAGTFDV [En_HC].
Result nd (0 of 6 replicates), variant GFTLNSYGIL / VIYADGRRTIHGDGVK / GRAAGTNKS [Rand].
Result nd (0 of 6 replicates), variant GFDLGEYGVS / VIYADGTRAQYADKVK / GNISYGFTV [En_Gibbs].
Result nd (0 of 6 replicates), variant GFTLNQYGIS / VIYSDGRRTFYGDSVK / GRIKGRFDS [Ctrl].
Result nd (0 of 6 replicates), variant GFTLNSYGIS / VIYSDGRRTFYNDSVK / GQLAGTFDS [GPLM_HC].
Result nd (0 of 6 replicates), variant GFTLNSYGIS / VIYADGRRTFYGDSVK / GRAAGTFDP [Ctrl].
Result nd (0 of 6 replicates), variant GFDLNEYGIS / VIYADGMRTAYIDSVK / GNTAGTFDQ [En_Gen].
Result -0.13 (6 of 6 replicates), variant GFGLNSYGIS / VIYSDGRRTFYADSVK / GKQAGTFDS [GP_Gibbs].

Values of this round are not directly comparable with the first-round values of the same sequences. Nonspecific signal, from three strains lacking the peptide, appeared in 1% of pairings of all heavy chain designs, centred on 2.08 (5% of these signals below 0.84); values are not corrected for it. In the paper, a design with two or fewer of six values counts as a poor binder. Of ten entries with the parent sequence, four were seen in most replicates (averages 0.34 to 2.37), three in one and three in none, so single entries are noisy.